Target: T1, human recombinant CD16b (R&D Systems) (human, UniProt O75015, in part)
T1 construct: Used as capture antigen in ELISA; also called FcyRIIIb; Fc gamma receptor III
Assay: ELISA, human recombinant CD16b as capture antigen; legend: - not detectable

binding result: no binding
B1: TGN1412 (antibody, human IgG4, kappa)
heavy: QVQLVQSGAEVKKPGASVKVSCKASGYTFTSYYIHWVRQAPGQGLEWIGCIYPGNVNTNYNEKFKDRATLTVDTSISTAYMELSRLRSDDTAVYFCTRSHYGLDWNFDVWGQGTTVTVSSASTKGPSVFPLAPCSRSTSESTAALGCLVKDYFPEPVTVSWNSGALTSGVHTFPAVLQSSGLYSLSSVVTVPSSSLGTKTYTCNVDHKPSNTKVDKRVESKYGPPCPSCPAPEFLGGPSVFLFPPKPKDTLMISRTPEVTCVVVDVSQEDPEVQFNWYVDGVEVHNAKTKPREEQFNSTYRVVSVLTVLHQDWLNGKEYKCKVSNKGLPSSIEKTISKAKGQPREPQVYTLPPSQEEMTKNQVSLTCLVKGFYPSDIAVEWESNGQPENNYKTTPPVLDSDGSFFLYSRLTVDKSRWQEGNVFSCSVMHEALHNHYTQKSLSLSLG
light: DIQMTQSPSSLSASVGDRVTITCHASQNIYVWLNWYQQKPGKAPKLLIYKASNLHTGVPSRFSGSGSGTDFTLTISSLQPEDFATYYCQQGQTYPYTFGGGTKVEIKRTVAAPSVFIFPPSDEQLKSGTASVVCLLNNFYPREAKVQWKVDNALQSGNSQESVTEQDSKDSTYSLSSTLTLSKADYEKHKVYACEVTHQGLSSPVTKSFNRGEC
notes: Humanized from mouse 5.11A1 by CDR grafting, IgG4; Two C-terminal variants of the heavy chain, differing by one residue, were seen on expression in CHO cells; also called humanized superagonistic anti-CD28 antibody of the IgG4 isotype

Reference: US20060286104A1 (THERAMAB, published 2006)
